Assays:
[1] = test system: muscarinic receptors; test: Overall antimuscarinic activity (ileum contraction, α-amylase release, [^3 H]NMS binding)
[2] = biological target: M2 receptor subtype (Cavia porcellus, UniProt H0W1Z3); test: Inhibition of acetylcholine-induced contraction of guinea pig ileum; conditions: for pA2, Inhibition of Guinea Pig Ileum Contraction: acetylcholine-induced contraction, mean of four to five independent experiments ± standard errors of the mean
[3] = biological target: T1, human serum butyrylcholinesterase (Homo sapiens, UniProt P06276); test: Inhibition (carbamylation) of human serum butyrylcholinesterase; conditions: for inhibition of human butyrylcholinesterase (in words): time-dependent manner
[4] = test system: butyrylcholinesterase; conditions: steady-state kinetics; cited from earlier work
[5] = biological target: T1, human serum butyrylcholinesterase; conditions: cited from earlier work
[6] = test system: M1 receptor subtype; test: [^3 H]NMS binding to cerebral cortex
[7] = biological target: M2 receptor subtype (Rattus norvegicus, UniProt P08483); test: Inhibition of carbachol-induced α-amylase release from pancreatic acini
[8] = test system: 7-(methylethoxyphosphinyloxy)-1-methylquinolinium iodide (MEPQ); test: Guinea pig pretreatment followed by MEPQ (organophosphate) challenge; conditions: no other supportive drugs

Sequences of proteins named here, by UniProt entry; tags and fusion partners are left off. Residues count along the entry.
UniProt H0W1Z3, 1-590: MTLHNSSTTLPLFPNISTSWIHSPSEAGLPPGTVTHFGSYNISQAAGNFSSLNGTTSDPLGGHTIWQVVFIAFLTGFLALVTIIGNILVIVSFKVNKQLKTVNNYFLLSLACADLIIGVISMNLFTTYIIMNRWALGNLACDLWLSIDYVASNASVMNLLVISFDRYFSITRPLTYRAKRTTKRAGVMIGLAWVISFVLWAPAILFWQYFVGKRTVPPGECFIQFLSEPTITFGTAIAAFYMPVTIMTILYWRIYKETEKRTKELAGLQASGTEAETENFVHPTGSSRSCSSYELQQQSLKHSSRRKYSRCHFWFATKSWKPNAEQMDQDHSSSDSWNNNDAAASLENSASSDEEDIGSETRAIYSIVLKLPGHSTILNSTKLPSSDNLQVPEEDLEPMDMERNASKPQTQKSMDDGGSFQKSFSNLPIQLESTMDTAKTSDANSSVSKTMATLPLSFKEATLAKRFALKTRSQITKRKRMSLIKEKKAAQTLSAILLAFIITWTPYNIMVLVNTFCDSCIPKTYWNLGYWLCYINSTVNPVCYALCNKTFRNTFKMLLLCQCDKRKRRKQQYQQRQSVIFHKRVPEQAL
UniProt P06276, 29-602 limits assumed: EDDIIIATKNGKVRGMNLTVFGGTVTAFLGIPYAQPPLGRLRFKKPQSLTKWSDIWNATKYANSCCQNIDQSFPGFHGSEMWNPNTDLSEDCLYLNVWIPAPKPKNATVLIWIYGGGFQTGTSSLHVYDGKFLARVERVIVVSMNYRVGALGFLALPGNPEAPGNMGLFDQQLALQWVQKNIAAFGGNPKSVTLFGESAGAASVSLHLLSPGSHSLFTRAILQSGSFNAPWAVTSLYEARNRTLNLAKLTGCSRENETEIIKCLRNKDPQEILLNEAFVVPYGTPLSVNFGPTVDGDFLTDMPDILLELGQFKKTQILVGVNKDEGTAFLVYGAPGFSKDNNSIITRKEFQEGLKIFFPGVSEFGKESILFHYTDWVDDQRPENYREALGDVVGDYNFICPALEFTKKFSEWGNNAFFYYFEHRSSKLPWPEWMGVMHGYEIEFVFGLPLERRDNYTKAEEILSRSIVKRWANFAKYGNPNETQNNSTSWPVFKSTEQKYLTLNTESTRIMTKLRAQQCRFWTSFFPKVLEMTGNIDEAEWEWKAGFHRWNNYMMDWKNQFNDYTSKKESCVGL
UniProt P08483, whole entry, looked up: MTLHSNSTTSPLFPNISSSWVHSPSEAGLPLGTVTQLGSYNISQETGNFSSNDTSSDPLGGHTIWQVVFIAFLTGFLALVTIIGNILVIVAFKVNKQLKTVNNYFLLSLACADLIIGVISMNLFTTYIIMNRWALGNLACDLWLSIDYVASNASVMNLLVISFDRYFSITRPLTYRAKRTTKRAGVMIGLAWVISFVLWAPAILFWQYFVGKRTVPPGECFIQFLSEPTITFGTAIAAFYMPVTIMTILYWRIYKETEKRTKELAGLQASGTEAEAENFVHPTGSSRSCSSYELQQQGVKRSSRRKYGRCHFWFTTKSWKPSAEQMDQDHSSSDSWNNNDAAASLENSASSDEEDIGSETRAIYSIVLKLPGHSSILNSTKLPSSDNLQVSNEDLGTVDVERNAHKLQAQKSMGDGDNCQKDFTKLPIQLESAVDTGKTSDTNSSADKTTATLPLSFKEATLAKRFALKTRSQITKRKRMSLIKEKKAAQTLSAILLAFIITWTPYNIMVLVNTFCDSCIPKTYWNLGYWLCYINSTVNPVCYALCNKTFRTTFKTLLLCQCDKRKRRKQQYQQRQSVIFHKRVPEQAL

Row | SMILES | pA2, Inhibition of Guinea Pig Ileum Contraction [2] | muscarinic subtype specificity (in words) [1] | activity as carbamates (in words) [3] | potency compared with physostigmine and pyridostigmine [3] | inhibition of human butyrylcholinesterase (in words) [3] | other results
1 | CCN(CC)CCOC(=O)C(C)(c1ccccc1)c1ccc(O)cc1 (stereo not shown) |  |  |  |  |  | preference for the M2 subtype of the pancreas over the M subtype of the cerebral cortex ([1]; pancreas α-amylase vs cortex [^3 H]NMS): about 18 fold
2 | CCN(CC)CCOC(=O)C(C)(c1ccc(O)cc1)c1ccc(O)cc1 |  |  |  |  |  | Ki ([1]; read-out: antimuscarinic inhibition constants): 1 µM
3 | CCN(CC)CCOC(=O)C(C)(c1ccc(O)cc1)c1ccc(OC(=O)N(C)C)cc1 (stereo not shown) | 5.5 ± 0.2 | do not exhibit any muscarinic subtype specificity | potent ability to carbamylate butyrylcholinesterase | high potencies on the order of those of physostigmine and pyridostigmine | highly inhibitory | antimuscarinic activities compared with dimethyl carbaphen [1]: one to two orders of magnitude lower; antimuscarinic activity (in words) [1]: poor antimuscarinic potency
4 | CCN(CC)CCOC(=O)C(C)(c1ccccc1)c1ccccc1 |  |  |  |  |  | inhibition of butyrylcholinesterase over acetylcholinesterase [4]: preferentially inhibit butyrylcholinesterase over acetylcholinesterase; hydrolysis by human serum butyrylcholinesterase [5]: not subject to hydrolysis
5 | CCN(CC)CCOC(=O)C(C)(c1ccc(OC(=O)N(C)C)cc1)c1ccc(OC(=O)N(C)C)cc1 | not active | do not exhibit any muscarinic subtype specificity | potent ability to carbamylate butyrylcholinesterase |  |  | Ki, Inhibition of Cerebral cortex [^3 H]NMS binding ([6]; 2 nM [^3 H]NMS, mean of four to five independent experiments ± standard errors of the mean): marginal activity; Ki, Inhibition of Pancreatic Acini α-amylase Release ([7]; 10^-5 M carbachol, mean of four to five independent experiments ± standard errors of the mean): not active
6 | CCN(CC)CCOC(=O)C(C)(c1ccccc1)c1ccc(OC(=O)NC)cc1 (stereo not shown) | 7.3 ± 0.1 | more specificity for the pancreatic M2 receptor subtype over the M1 subtype of the cortex | potent ability to carbamylate butyrylcholinesterase | high potencies on the order of those of physostigmine and pyridostigmine | highly inhibitory | protection against multiple LD50 doses of organophosphate [8]: protective characteristics against multiple LD50 doses of a potent organophosphate
7 | CCN(CC)CCOC(=O)C(C)(c1ccccc1)c1ccc(OC(=O)N(C)C)cc1 (stereo not shown) | 7.1 ± 0.1 | do not exhibit any muscarinic subtype specificity | potent ability to carbamylate butyrylcholinesterase | high potencies on the order of those of physostigmine and pyridostigmine | highly inhibitory | pA2 compared with monomethyl carbaphen (Compound 16) ([2]; inhibition of ileum contraction): about the same; anti-muscarinic profile compared with aprophen [1]: almost the same anti-muscarinic profile; inhibition of [^3 H]NMS binding compared with monomethyl carbaphen (Compound 16) [6]: one order of magnitude lower; inhibition of α-amylase release compared with monomethyl carbaphen (Compound 16) [7]: one order of magnitude lower
